Data: PMC10957775, “Integrated chemical characterization, metabolite profiling, and pharmacokinetics analysis of Zhijun Tangshen Decoction by UPLC-Q/TOF-MS” (Frontiers in Pharmacology, 2024)
Where two headings read alike, the source gives them in different places.

Experiments:
[1] = Multi-compound pharmacokinetics of ZJTSD in rat serum, semi-quantitative UPLC-Q/TOF-MS (peak area ratio versus time, non-compartmental); details: prototype compounds of ZJTSD absorbed into rat serum; mean±SD, n=3; in h
[2] = rat, in vivo

Row | Molecule | Tmax [1] | MRT(0→t) [1] | t1/2 [1] | Tmax [2]
1 | O=C1CCCn2c(CO)ccc21 [P34, Polygonatine A] | 1.67±2.02 | – | – | –
2 | 1-(5-Hydroxym-ethyl-tetrahydro-furan-2-yl)-9H-β-carboline-3-carboxylic acid [P32] | 1.67±2.02 | 5.02±0.68 | 4.52±2.85 | –
3 | Cc1cc(O)c2c(c1)C(=O)c1cc(C(=O)O)cc(O)c1C2=O [P19, 6-Methyl-rhein] | – | – | – | 1.67±2.02
